Legend:
[1] = Biodistribution after i.v. injection in tissue cage mouse model (organs, tissues, cages overall)
Protocol: (§1) C57Bl/6 mice from in-house breeding or purchased from Charles River Laboratories GmbH (Sulzfeld, Germany) were housed in the Animal Facility of the Department of Biomedicine, University Hospital, Basel, Switzerland. Experiments were performed in accordance to the regulations of Swiss veterinary law. The Institutional Animal Care and Use Committee approved the study protocol. Drinking water and standard laboratory food pellets (CR) were provided ad libitum. To reduce interference of high vitamin B12 level in mice, animals randomized for Cbl biodistribution studies were fed with a vitamin B12-reduced diet (Provimi Kliba AG, Kaiseraugst, Switzerland) beginning at the age of 10 weeks. At the age of 12 weeks, one sterile polytetrafluoroethylene (Teflon) tube (32 × 10 mm), perforated by 130 regularly spaced holes of 1 mm diameter, was aseptically implanted into the back of each mouse, as previously described. Each cage was weighted and numbered before implantation. Two weeks after surgery, clips were removed from healed wounds, and sterility of the cage was confirmed by culture of aspirated cage fluid. On the following day, 5 × 10^5 CFU of E. coli or 5 × 10^6 CFU of S. aureus, resuspended in 200 μl of 0.9 % saline, were injected into cages. Sterile 0.9 % saline was injected in cages in animals used as negative controls.
The two different experimental set-up of biodistribution were adapted to the known radiopharmaceutical binding/non-binding to plasma protein, persistence in organs and tissues and half-life of the labelling radioisotope.
(§2) Accumulation of radiopharmaceuticals in cage fluids was measured by resuspending 100 μl of aspirated fluid in 1 ml PBS and counted in a gamma counter. The percentage of injected dose (% IDTCF/ml) was calculated as measured CPM normalized per 1 ml cage fluid and divided by the CPM0 (injected dose). For determination of radiopharmaceutical biodistribution, mice were sacrificed with an intraperitoneal injection of 50–80 μl saline solution of pentothal (100 mg/ml). Blood was collected by cardiac puncture, and mice were perfused with 0.9 % saline for around 5 min. Following, tissues were dissected, weighted and collected into test tubes for γ-counter (blood, heart, liver, spleen, stomach, kidneys, lungs, intestine, muscle, bone and cage). The percentage of injected dose (% IDtissue/g) was calculated as CPM associated to each organ divided by its weight in grams and by the CPM0.

[2] = Distribution into sterile (non-infected) tissue cages and cage fluids; conditions: for Cage—sterile, mean % ID/g tissue ± SD: explanted sterile cage
Protocol: as §1, §2

[3] = system: E. coli-infected cages; test: Distribution into E. coli-infected tissue cages and cage fluids; conditions: for Cage—E. coli, mean % ID/g tissue ± SD: explanted E. coli-infected cage
Protocol: (§3) For in vivo studies, overnight cultures were prepared in 5 ml tryptic soy broth (TSB), incubated at 37 °C for 18–20 h. Bacterial suspensions were then washed three times, resuspended in 5 ml of sterile 0.9 % saline and diluted.
as §1, §2

[4] = system: S. aureus-infected cages; test: Distribution into S. aureus-infected tissue cages and cage fluids; conditions: for Cage—S. aureus, mean % ID/g tissue ± SD: explanted S. aureus-infected cage
Protocol: as §3, §1, §2

[^99mTc]PAMA(4)-cyanocobalamin [[^99mTc]PAMA(4)-Cbl]
Blood, mean % ID/g tissue ± SD ([1]; 30 min after i.v. injection): 1.79 ± 0.05 % ID/g tissue
Blood, mean % ID/g tissue ± SD ([1]; 4 h after i.v. injection): 0.15 ± 0.02 % ID/g tissue
Blood, mean % ID/g tissue ± SD ([1]; 24 h after i.v. injection): 0.02 ± 0.10 % ID/g tissue
Bone, mean % ID/g tissue ± SD ([1]; 30 min after i.v. injection): 0.74 ± 0.05 % ID/g tissue
Bone, mean % ID/g tissue ± SD ([1]; 4 h after i.v. injection): 0.22 ± 0.01 % ID/g tissue
Bone, mean % ID/g tissue ± SD ([1]; 24 h after i.v. injection): 0.08 ± 0.01 % ID/g tissue
Heart, mean % ID/g tissue ± SD ([1]; 30 min after i.v. injection): 0.90 ± 0.07 % ID/g tissue
Heart, mean % ID/g tissue ± SD ([1]; 4 h after i.v. injection): 0.33 ± 0.07 % ID/g tissue
Heart, mean % ID/g tissue ± SD ([1]; 24 h after i.v. injection): 0.11 ± 0.01 % ID/g tissue
Intestine, mean % ID/g tissue ± SD ([1]; 30 min after i.v. injection): 1.81 ± 0.14 % ID/g tissue
Intestine, mean % ID/g tissue ± SD ([1]; 4 h after i.v. injection): 1.52 ± 0.51 % ID/g tissue
Intestine, mean % ID/g tissue ± SD ([1]; 24 h after i.v. injection): 0.59 ± 0.05 % ID/g tissue
Kidneys, mean % ID/g tissue ± SD ([1]; 30 min after i.v. injection): 15.66 ± 1.88 % ID/g tissue
Kidneys, mean % ID/g tissue ± SD ([1]; 4 h after i.v. injection): 13.47 ± 1.79 % ID/g tissue
Kidneys, mean % ID/g tissue ± SD ([1]; 24 h after i.v. injection): 11.19 ± 1.35 % ID/g tissue
Liver, mean % ID/g tissue ± SD ([1]; 30 min after i.v. injection): 5.75 ± 0.86 % ID/g tissue
Liver, mean % ID/g tissue ± SD ([1]; 4 h after i.v. injection): 2.98 ± 0.45 % ID/g tissue
Liver, mean % ID/g tissue ± SD ([1]; 24 h after i.v. injection): 0.92 ± 0.90 % ID/g tissue
Lungs, mean % ID/g tissue ± SD ([1]; 30 min after i.v. injection): 2.81 ± 0.51 % ID/g tissue
Lungs, mean % ID/g tissue ± SD ([1]; 4 h after i.v. injection): 1.09 ± 0.26 % ID/g tissue
Lungs, mean % ID/g tissue ± SD ([1]; 24 h after i.v. injection): 0.29 ± 0.10 % ID/g tissue
Muscle, mean % ID/g tissue ± SD ([1]; 30 min after i.v. injection): 0.38 ± 0.03 % ID/g tissue
Muscle, mean % ID/g tissue ± SD ([1]; 4 h after i.v. injection): 0.09 ± 0.01 % ID/g tissue
Muscle, mean % ID/g tissue ± SD ([1]; 24 h after i.v. injection): 0.03 ± 0.01 % ID/g tissue
Spleen, mean % ID/g tissue ± SD ([1]; 30 min after i.v. injection): 1.48 ± 0.18 % ID/g tissue
Spleen, mean % ID/g tissue ± SD ([1]; 4 h after i.v. injection): 0.60 ± 0.07 % ID/g tissue
Spleen, mean % ID/g tissue ± SD ([1]; 24 h after i.v. injection): 0.22 ± 0.03 % ID/g tissue
Stomach, mean % ID/g tissue ± SD ([1]; 30 min after i.v. injection): 1.73 ± 0.30 % ID/g tissue
Stomach, mean % ID/g tissue ± SD ([1]; 4 h after i.v. injection): 0.49 ± 0.23 % ID/g tissue
Stomach, mean % ID/g tissue ± SD ([1]; 24 h after i.v. injection): 0.44 ± 0.14 % ID/g tissue
Maximum % IDTCF/ml in cage fluid, sterile cages ([2]; 30 min p.i., i.v., cage fluid): 2.3 ± 0.39%
Cage—sterile, mean % ID/g tissue ± SD ([2]; 30 min after i.v. injection): 2.37 ± 0.16 % ID/g tissue
Cage—sterile, mean % ID/g tissue ± SD ([2]; 4 h after i.v. injection): 0.87 ± 0.25 % ID/g tissue
Cage—sterile, mean % ID/g tissue ± SD ([2]; 24 h after i.v. injection): 0.04 ± 0.01 % ID/g tissue
Maximum % IDTCF/ml in cage fluid, cages infected with E. coli ([3]; 30 min p.i., i.v., cage fluid): 1.33 ± 0.26%
Cage fluid/blood ratio, mice infected with E. coli ([3]; 24 h p.i.): 6.31 ± 2.92
% ID/g in explanted E. coli-infected cages relative to sterile cages ([3]; 24 h p.i., explanted cages, higher than sterile): ~10 fold
Cage—E. coli, mean % ID/g tissue ± SD ([3]; 30 min after i.v. injection): 0.76 ± 0.21 % ID/g tissue
Cage—E. coli, mean % ID/g tissue ± SD ([3]; 4 h after i.v. injection): 0.84 ± 0.23 % ID/g tissue
Cage—E. coli, mean % ID/g tissue ± SD ([3]; 24 h after i.v. injection): 0.37 ± 0.18 % ID/g tissue
Maximum % IDTCF/ml in cage fluid, cages infected with S. aureus ([4]; 30 min p.i., i.v., cage fluid): 2.06 ± 0.79%
Cage fluid/blood ratio, mice infected with S. aureus ([4]; 24 h p.i.): 13.48 ± 2.75
Cage—S. aureus, mean % ID/g tissue ± SD ([4]; 30 min after i.v. injection): 1.80 ± 0.91 % ID/g tissue
Cage—S. aureus, mean % ID/g tissue ± SD ([4]; 4 h after i.v. injection): 1.47 ± 0.38 % ID/g tissue
Cage—S. aureus, mean % ID/g tissue ± SD ([4]; 24 h after i.v. injection): 0.14 ± 0.06 % ID/g tissue

Reference: PMC4641156, “Evaluation of a Novel Tc-99m Labelled Vitamin B12 Derivative for Targeting Escherichia coli and Staphylococcus aureus In Vitro and in an Experimental Foreign-Body Infection Model” (Molecular Imaging and Biology, 2015)
